Data: PubChem BioAssay AID652054 (National Center for Advancing Translational Sciences (NCATS), 2013)
The entries are a selection whose mix differs from that of the whole data set. Records with an inconclusive call do not appear. Active and inactive are the calls of the source. Cut-off read from the data, not from the text of the source: active = max response below about -50%; inconclusive = no clear call, values can overlap the other calls; inactive = above that.

Amino acid sequences for entries named in this document (tags omitted).
UniProt P35462, whole entry, looked up: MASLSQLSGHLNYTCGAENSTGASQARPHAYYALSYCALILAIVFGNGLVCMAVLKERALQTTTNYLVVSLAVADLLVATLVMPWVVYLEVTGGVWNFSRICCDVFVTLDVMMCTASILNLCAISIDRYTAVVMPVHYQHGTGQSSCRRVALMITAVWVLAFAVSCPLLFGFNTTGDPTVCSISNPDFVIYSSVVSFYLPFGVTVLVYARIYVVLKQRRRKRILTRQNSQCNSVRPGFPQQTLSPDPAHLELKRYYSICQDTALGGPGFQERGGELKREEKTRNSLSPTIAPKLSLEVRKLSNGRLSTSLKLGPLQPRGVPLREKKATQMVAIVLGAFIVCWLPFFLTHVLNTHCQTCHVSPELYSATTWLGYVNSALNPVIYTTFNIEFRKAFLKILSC

target: D(3) dopamine receptor (Homo sapiens) (UniProt P35462); assay: qHTS of D3 Dopamine Receptor Antagonist: qHTS; conditions: D3R cells, DiscoveRx beta-arrestin luminescence, antagonist mode; stronger effect = lower value
In short: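 Cells expressing the human receptor were seeded at 1500 cells/well, incubated overnight at 37 degrees C in 5% CO2, then exposed to library compounds with dopamine controls for 90 minutes at 37 degrees C before luminescent detection.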
% is set by controls: 0 for no effect and ±100 for the full control effect.

**Q.** O=C(OC1CN2CCC1CC2)c1cccc(Cl)c1 (stereo not given) was tested. Which max response, negative = inhibition did it give?
**A.** inactive: -6.92%

**Q.** With C(Cc1nn[nH]n1)Cc1nn[nH]n1 as the compound, how does the max response, negative = inhibition read?
**A.** inactive: 13.4%

**Q.** Nc1ccc([As](=O)(O)c2ccc([N+](=O)[O-])cc2)cc1 was tested. Which max response, negative = inhibition did it give?
**A.** inactive: 2.14%

**Q.** O=P(Nc1ccccn1)(c1ccc(Br)cc1)c1ccc(Br)cc1 was tested. Which max response, negative = inhibition did it give?
**A.** inactive: 13.9%

**Q.** With CN(C)C1(CNC(=O)c2ccc(Cl)c(S(N)(=O)=O)c2)CCCCC1 as the compound, how does the max response, negative = inhibition read?
**A.** inactive: 3.1%

**Q.** COc1ccc(N)c([N+](=O)[O-])c1[N+](=O)[O-] was tested. Which max response, negative = inhibition did it give?
**A.** inactive: -25.6%

**Q.** Which max response, negative = inhibition does the source give for Nc1ccc(CCCCOc2ccccc2)cc1 here?
**A.** active: -78.8%

**Q.** How did the max response, negative = inhibition turn out when C[C@H]1OP(=O)(Oc2ccccc2)[C@H](O)[C@H](O)[C@H]1N=[N+]=[N-] (stereo not given in full) was run?
**A.** inactive: 2.02%

**Q.** With O=P(Nc1nc2ccccc2s1)(c1ccccc1)c1ccccc1 as the compound, how does the max response, negative = inhibition read?
**A.** inactive: 3.6%

**Q.** With CC(C)C(=O)NC(Sc1ccccc1)C(Cl)(Cl)Cl (stereo not given) as the compound, how does the max response, negative = inhibition read?
**A.** inactive: -18.2%

**Q.** How did the max response, negative = inhibition turn out when O=P(Nc1nccs1)(c1ccccc1)c1ccccc1 was run?
**A.** inactive: 0.148%

**Q.** For c1nnnn1CCn1cnnn1, which max response, negative = inhibition is on record?
**A.** inactive: 4.17%

**Q.** How did the max response, negative = inhibition turn out when C[C@H]1OP(=O)(Oc2ccccc2)C[C@@H]2O[C@@H]21 (stereo not given in full) was run?
**A.** inactive: 26.2%

**Q.** C[C@@H]1C=CCP(=O)(Oc2ccccc2)O1 (stereo not given in full) was tested. Which max response, negative = inhibition did it give?
**A.** inactive: 15.4%

**Q.** Cc1ccccc1CN(C)C(=O)COC(=O)C(O)(c1ccccc1)c1ccccc1 was tested. Which max response, negative = inhibition did it give?
**A.** inactive: 24.7%

**Q.** For COC(=O)C1(C)COP(=O)(NCc2ccccc2)OC1 (stereo not given), which max response, negative = inhibition is on record?
**A.** inactive: 4.15%

**Q.** With CC(=O)c1ccc(N2CC2c2ccncc2)cc1 (stereo not given) as the compound, how does the max response, negative = inhibition read?
**A.** active: -53.2%

**Q.** Which max response, negative = inhibition does the source give for N#C/C(=C\c1ccc(N(CCBr)CCBr)cc1)C(N)=O here?
**A.** inactive: 11.6%

**Q.** Which max response, negative = inhibition does the source give for CC(=O)Nc1ccc(Oc2c([N+](=O)[O-])cc([N+](=O)[O-])cc2[N+](=O)[O-])cc1 here?
**A.** inactive: -13.3%

**Q.** CC(=O)Nc1ccc([As](=O)(O)O)c(O)c1 was tested. Which max response, negative = inhibition did it give?
**A.** inactive: -1.39%

**Q.** CCOc1ccc(C2=NCC(CBr)S2)cc1 (stereo not given) was tested. Which max response, negative = inhibition did it give?
**A.** inactive: -10.4%

**Q.** How did the max response, negative = inhibition turn out when O=P1(Nc2nc3ccc(Cl)cc3s2)COc2ccccc2O1 (stereo not given) was run?
**A.** inactive: 9.16%

**Q.** CC(C)(C)C(=O)NC(Sc1ccccc1)C(Cl)(Cl)Cl (stereo not given) was tested. Which max response, negative = inhibition did it give?
**A.** inactive: -4.64%

**Q.** How did the max response, negative = inhibition turn out when CCc1cc(O)c([N+](=O)[O-])c(C)c1[N+](=O)[O-] was run?
**A.** inactive: -20.7%

**Q.** CCC(=O)N1C2C3N(C(=O)CC)C1C1N(C(=O)CC)C(C(N1C(=O)CC)N3C(=O)CC)N2C(=O)CC was tested. Which max response, negative = inhibition did it give?
**A.** inactive: 14%

**Q.** Which max response, negative = inhibition does the source give for O=C(OC1CN2CCC1CC2)c1ccccc1 (stereo not given) here?
**A.** inactive: -3.17%

**Q.** With Cc1ccc(OP(=O)(Nc2ccccn2)Oc2ccc(C)cc2)cc1 as the compound, how does the max response, negative = inhibition read?
**A.** inactive: 13.3%

**Q.** CC(=O)NC(SC(=S)N(CC(C)C)CC(C)C)C(Cl)(Cl)Cl (stereo not given) was tested. Which max response, negative = inhibition did it give?
**A.** inactive: 3.94%

**Q.** For COC(=O)c1cc2c(s1)N=C(c1ccccc1)N(C)P2(=O)N1CCOCC1 (stereo not given), which max response, negative = inhibition is on record?
**A.** inactive: 5.3%

**Q.** Which max response, negative = inhibition does the source give for O=c1c2cc([N+](=O)[O-])ccc2[nH]c2c([N+](=O)[O-])cc([N+](=O)[O-])cc12 here?
**A.** inactive: -27.9%

**Q.** Which max response, negative = inhibition does the source give for CN(C)C(=O)Oc1noc2ccccc12 here?
**A.** inactive: -3.87%

**Q.** With CC(NC(=O)COC(=O)C(O)(c1ccccc1)c1ccccc1)c1ccccc1 (stereo not given) as the compound, how does the max response, negative = inhibition read?
**A.** inactive: 3.5%

**Q.** For Cc1ccccc1OP(=O)(Nc1ccccn1)Oc1ccccc1C, which max response, negative = inhibition is on record?
**A.** inactive: 16.5%

**Q.** Cc1ccc(NP(=O)(Oc2cccc(C)c2)Oc2cccc(C)c2)nc1 was tested. Which max response, negative = inhibition did it give?
**A.** inactive: 0.969%

**Q.** Which max response, negative = inhibition does the source give for c1ccc(-c2nn[nH]n2)c(-c2nn[nH]n2)c1 here?
**A.** inactive: -8.91%

**Q.** For CCNC(=S)/N=C(\N)N[N+](=O)[O-], which max response, negative = inhibition is on record?
**A.** inactive: -0.105%

**Q.** O=C(NC1CCS(=O)(=O)C1)NP(=S)(Oc1ccccc1)Oc1ccccc1 (stereo not given) was tested. Which max response, negative = inhibition did it give?
**A.** inactive: -7.2%

**Q.** For O=P1(N(CCCl)CCCl)OCCC2CCCCN21 (stereo not given), which max response, negative = inhibition is on record?
**A.** inactive: -7%

**Q.** For Nc1cccc2ccc([As](=O)(O)O)cc12, which max response, negative = inhibition is on record?
**A.** inactive: 1.73%

**Q.** How did the max response, negative = inhibition turn out when CCN(N=Nc1nonc1N)c1nonc1N was run?
**A.** inactive: 24.4%

**Q.** With O=P(Nc1nc2ccc(Cl)cc2s1)(c1ccccc1)c1ccccc1 as the compound, how does the max response, negative = inhibition read?
**A.** inactive: 43.6%

**Q.** Which max response, negative = inhibition does the source give for CN(C)P(=O)(N(C)C)n1c(Nc2ccccc2)nnc1-c1ccccc1 here?
**A.** inactive: 12.6%

**Q.** CCCC1OP(N)(=O)OCC1CC (stereo not given) was tested. Which max response, negative = inhibition did it give?
**A.** inactive: -3.64%

**Q.** With CC(=O)Nc1ccc([As](=O)(O)O)cc1 as the compound, how does the max response, negative = inhibition read?
**A.** inactive: 6.9%

**Q.** For O=C(O)c1ccccc1[As](=O)(O)O, which max response, negative = inhibition is on record?
**A.** inactive: -27.7%

**Q.** With Cc1ccc(NP(=O)(Oc2ccccc2F)Oc2ccccc2F)nc1 as the compound, how does the max response, negative = inhibition read?
**A.** inactive: -4.56%

**Q.** For CN(C(=O)Cc1ccc(Cl)c(Cl)c1)[C@H]1CCCC[C@@H]1N1CCCC1, which max response, negative = inhibition is on record?
**A.** inactive: -18.1%

**Q.** For Cc1cc(SC(NC(=O)c2ccc(F)cc2)C(Cl)(Cl)Cl)ncn1 (stereo not given), which max response, negative = inhibition is on record?
**A.** inactive: 1.37%

**Q.** CCOP(=O)(Nc1ccccc1)OCC was tested. Which max response, negative = inhibition did it give?
**A.** inactive: 0.403%

**Q.** Which max response, negative = inhibition does the source give for Oc1ccccc1CNc1ccccn1 here?
**A.** inactive: 7.9%

**Q.** With Nc1cc(N)c2nonc2c1[N+](=O)[O-] as the compound, how does the max response, negative = inhibition read?
**A.** inactive: -19.2%

**Q.** For CC(C)CC(=O)NC(Sc1ccc(Cl)cc1)C(Cl)(Cl)Cl (stereo not given), which max response, negative = inhibition is on record?
**A.** inactive: -11.3%

**Q.** O=[N+]([O-])C1C(O)C(O)C([N+](=O)[O-])C(O)C1O (stereo not given) was tested. Which max response, negative = inhibition did it give?
**A.** inactive: 36.8%

**Q.** With Cc1ccc(N/C(=N/P(=O)(N2CCOCC2)N2CCOCC2)N2CCOCC2)cc1 as the compound, how does the max response, negative = inhibition read?
**A.** inactive: -7.64%

**Q.** Which max response, negative = inhibition does the source give for CN(C(=O)Cc1ccc(Cl)c(Cl)c1)[C@H]1CCCC[C@H]1N1CCCC1 here?
**A.** inactive: -19.7%

**Q.** For NC(=O)c1cc([N+](=O)[O-])cc([N+](=O)[O-])c1N, which max response, negative = inhibition is on record?
**A.** inactive: 8.59%

**Q.** Which max response, negative = inhibition does the source give for CN1CCCC(OC(=O)C(c2ccccc2)c2ccccc2)C1 (stereo not given) here?
**A.** active: -68.1%

**Q.** Which max response, negative = inhibition does the source give for Clc1ccc(Cl)c(NC2=NCC(CBr)S2)c1 (stereo not given) here?
**A.** inactive: 12.3%

**Q.** For Cc1ccc(OP(=O)(Nc2nccs2)Oc2ccc(C)cc2)cc1, which max response, negative = inhibition is on record?
**A.** inactive: 2.03%

**Q.** Which max response, negative = inhibition does the source give for COc1ccccc1OP(=O)(Nc1ccc(C)cn1)Oc1ccccc1OC here?
**A.** inactive: 8.15%

**Q.** CCN(/C(=N/P(=O)(N1CCOCC1)N1CCOCC1)N1CCOCC1)c1ccc(OC)cc1 was tested. Which max response, negative = inhibition did it give?
**A.** inactive: 2.44%

**Q.** Which max response, negative = inhibition does the source give for C[N+]1=C2C=CC=CC=C2SC12C([N+](=O)[O-])=CC([N+](=O)[O-])=C[C-]2[N+](=O)[O-] (stereo not given) here?
**A.** active: -90.2%

**Q.** For Nc1ccc([As](=O)(O)c2ccc(N)cc2)cc1, which max response, negative = inhibition is on record?
**A.** inactive: 9.77%

**Q.** With CC1CCN(C(=O)Oc2c(Cl)cc(Cl)c3cccnc23)CC1 as the compound, how does the max response, negative = inhibition read?
**A.** inactive: 17.3%

**Q.** For c1cc(-c2nn[nH]n2)ccc1-c1nn[nH]n1, which max response, negative = inhibition is on record?
**A.** inactive: -1.65%

**Q.** CN(C)C(=O)OCCc1n(C)cc[n+]1C was tested. Which max response, negative = inhibition did it give?
**A.** inactive: 6.09%

**Q.** CC(C)c1nc(Nc2ccccc2)n(P(=O)(N(C)C)N(C)C)n1 was tested. Which max response, negative = inhibition did it give?
**A.** inactive: 2.29%

**Q.** How did the max response, negative = inhibition turn out when CC(C)=N/N=C(\N)N[N+](=O)[O-] was run?
**A.** inactive: -7.22%

**Q.** For COc1ccc(C2=NCC(CBr)S2)cc1 (stereo not given), which max response, negative = inhibition is on record?
**A.** inactive: 1.51%

**Q.** With CCc1nc2c(n1)c1c(non1O)c1c2no[n+]1[O-] as the compound, how does the max response, negative = inhibition read?
**A.** inactive: -5.78%

**Q.** For O=[N+]([O-])c1cc([N+](=O)[O-])c(CCNc2ccccc2)c([N+](=O)[O-])c1, which max response, negative = inhibition is on record?
**A.** inactive: -18.3%

**Q.** Cc1ccc(NP(=O)(Oc2ccccc2)Oc2ccccc2)nc1 was tested. Which max response, negative = inhibition did it give?
**A.** inactive: -10.9%

**Q.** With CC(=O)N1C2C3N(C(C)=O)C1C1N(C(C)=O)C(C(N1C(C)=O)N3C(C)=O)N2C(C)=O as the compound, how does the max response, negative = inhibition read?
**A.** inactive: 0%

**Q.** How did the max response, negative = inhibition turn out when O=[N+]([O-])c1ncn(CCn2ncnc2[N+](=O)[O-])n1 was run?
**A.** inactive: 15.7%

**Q.** For CC(C)(C)C(=O)NC(Sc1ccncn1)C(Cl)(Cl)Cl (stereo not given), which max response, negative = inhibition is on record?
**A.** inactive: -11%

**Q.** For O=C(O)CNc1ccc([As](=O)(O)O)cc1, which max response, negative = inhibition is on record?
**A.** inactive: 2.05%

**Q.** For COC(=O)C1(C)COP(=O)(Nc2ccccc2)OC1 (stereo not given), which max response, negative = inhibition is on record?
**A.** inactive: -4.78%

**Q.** Which max response, negative = inhibition does the source give for O=[N+]([O-])c1cccc(NC2=NCC(CBr)S2)c1 (stereo not given) here?
**A.** inactive: 0.223%

**Q.** For O=P1(N(CCCl)CCCl)OCCCS1 (stereo not given), which max response, negative = inhibition is on record?
**A.** inactive: -16.2%

**Q.** O=C(Nc1cc([As](=O)(O)O)ccc1O)c1ccccc1 was tested. Which max response, negative = inhibition did it give?
**A.** inactive: -0.779%
